Tested on: M. tuberculosis MDR
Test: Anti-tuberculosis bioassay (tetrazolium microplate MIC)
Format: cell-based
Conditions: Mycobacterium tuberculosis, read-out: Mycobacterium MIC MDR

SMILES: COc1cc(/C=N\Nc2ncnc3sc4c(c23)CCCC4)ccc1O [II-15]
- MIC: > 25 µg/mL

— patent US9061984B2 (University of Louisville Research Foundation, Inc., priority 2008, dated 2015)
